Values quoted from earlier work, collected in patent publication US20150376703A1, “METHOD AND SYSTEM TO PREDICT RESPONSE TO PAIN TREATMENTS” (PATHWAY GENOMICS CORPORATION, priority 2013, published 2015).

Biological target: mu-opioid receptor (OPRM1) (Homo sapiens, UniProt P35372, N40D)
Settings: OPRM1 G allele (Asn40Asp)

## beta-endorphin
  increase in beta-endorphin binding at the receptor: 3 fold
